Literature values as cited in patent US10881675B2, “Gut health compositions” (priority 2017, dated 2021).

Test system: bifidobacterium
Conditions: in vivo

Substance: xylooligosaccharides [XOS]
- intestinal side effects as compared to other prebiotics: significantly reduced
